Our source for the outcome and AC50 values is PubChem BioAssay (EPA / NIEHS).

The structures appear in SMILES notation. This is a selection; strong and weak results do not stand in their true shares. The source made the active and inactive calls. Rule for the calls: active = hit-call score of the fitted dose curve at least 0.9, where 1 is the maximum; inactive = score below 0.9.

This experiment in a line: ATG_PPRE_CIS: Attagene CIS-FACTORIAL HepG2 Assay for human Peroxisome Proliferator-activated Response Element (PPRE) (AID 2282958). As to conditions: HepG2 PPRE cis-element reporter, Attagene transcription factor profiling; actives raise or lower the signal.
`CCCCCCCCC(CO)CCCCCC` (centres undefined): the compound was classed as inactive. For `CCCC(=O)OC`, the result was inactive. As for `C[C@]12C=CC(=O)C=C1CC[C@@H]1[C@@H]2C(=O)C[C@@]2(C)[C@H]1CC[C@]2(O)C(=O)CO`, the compound was classed as inactive. For `CCCc1ccc(O)c(OC)c1`, the AC50 (commonly the concentration at which the activity in the assay is half-maximal) is active: 22.7 µM. As for `CC(C)(C#N)c1cc(Cn2cncn2)cc(C(C)(C)C#N)c1`, the call was inactive.

On to `CCCCOC(=O)CCCCCCCCC(=O)OCCCC`, for which the compound was called inactive. As to `CC1=CC(C)C(C=O)C(C)C1` (centres undefined) (tested in a mixture with another compound), the compound was called inactive. On to `OC[C@@H](O)[C@@H](O)[C@H](O)[C@@H](O)CO`, for which the outcome was inactive.

In the case of `COc1ccc([C@@H]2CC(=O)c3c(O)cc(O[C@@H]4O[C@H](CO[C@@H]5O[C@@H](C)[C@H](O)[C@@H](O)[C@H]5O)[C@@H](O)[C@H](O)[C@H]4O)cc3O2)cc1OC`, the call was inactive. As to `CC(=O)OCCOC(C)=O`, the call was inactive. Same read-out and setting: the same measure for `CC(C)c1ccc(C(=O)N=C(N)N)cc1S(C)(=O)=O`: “inactive”.

Regarding `CCCCCCCCCCCCCCCCOS(=O)(=O)O`, the AC50 was active: 6.18 µM.

Regarding `CC(=O)OC(C)c1ccccc1` (centres undefined), the result was inactive. Still for that read-out and setting: for `CCCC(C)C(O)CC` (centres undefined) the value was “inactive”; for `N=C1N=C(N)c2ccccc21`, “inactive”; for `C=CC(=O)OCCC(=O)O`, “inactive”.

Consider `CCCCCOC(=O)COc1cc(N2C(=O)C3=C(CCCC3)C2=O)c(F)cc1Cl`, for which the compound was classed as inactive. Take `CCCCOCC(C)O` (centres undefined): the compound was called inactive.

As for `O=C1OC(c2ccc(O)cc2)(c2ccc(O)cc2)c2ccccc21`, the AC50 was active: 24.8 µM.

For `CCCCc1ccc(N)cc1`, the compound was called inactive.

`COc1ccc(OC)c(OC)c1`: the compound was called inactive. The same measure, in the same setting: for `CCOCCOCCOCCO` the value was “inactive”. Turning to `O=c1c(O)c(-c2ccc(O)c(O)c2)oc2cc(O)cc(O)c12`, the AC50 was active: 27.4 µM. Take `CC1(C)O[C@@H]2[C@@H](CO[C@@]3(COS(N)(=O)=O)OC(C)(C)O[C@@H]23)O1`: the compound was classed as inactive.

Consider `O=Cc1ccc(CO)o1`, for which the call was inactive. Same read-out and setting: for `Cc1nccn1-c1ccc(Sc2cccc(C3(C(N)=O)CCOCC3)c2)cc1` the value was “inactive”; for `CC[N+](CC)(CC(=O)Nc1c(C)cccc1C)Cc1ccccc1` (tested in a mixture with another compound), “inactive”; for `Cc1cc(C)c(C(=O)O)c(C)c1`, “inactive”.

Regarding `CCCCCCCOC(=O)c1ccc(O)cc1`, the AC50 is active: 59.4 µM. In the case of `O=C(O)c1ccccc1`, the call was inactive. Regarding `F[B-](F)(F)F`, the compound was classed as inactive. Same read-out and setting: for `CC(C)CCCCCOC(=O)CS` the value was “inactive”; for `CCCCC(=O)O`, “inactive”. On the same count and under the same terms, for `CN(C[C@@H](CC[N+]12CCC(C3CCCCC3)(CC1)CC2)c1ccc(Cl)c(Cl)c1)C(=O)c1cc(C(F)(F)F)cc(C(F)(F)F)c1` the value was “inactive”. Take `CN1CCCC1=O`: the call was inactive. Turning to `CC/C=C\CC1=C(C)CCC1=O`, the compound was called inactive.

With `O=C(OC[C@H]1O[C@@H](OC(=O)c2cc(O)c(O)c(OC(=O)c3cc(O)c(O)c(O)c3)c2)[C@H](OC(=O)c2cc(O)c(O)c(OC(=O)c3cc(O)c(O)c(O)c3)c2)[C@@H](OC(=O)c2cc(O)c(O)c(OC(=O)c3cc(O)c(O)c(O)c3)c2)[C@@H]1OC(=O)c1cc(O)c(O)c(OC(=O)c2cc(O)c(O)c(O)c2)c1)c1cc(O)c(O)c(OC(=O)c2cc(O)c(O)c(O)c2)c1`, the compound was called inactive. As to `CC(C)=CCCC(C)=CC(=O)O`, the compound was called inactive. For the compound `CCCCCCCCN1CCCC1=O`, the compound was called inactive.
